Assay results as given in publication PMC3026633 (Neuropharmacology, 2010).

The chains behind the UniProt entries cited, without tags or fusion partners. Where a name states a change or a piece, a line headed by the entry shows the natural chain unless it says otherwise. Residues count along the entry.
UniProt P18508, 39-466: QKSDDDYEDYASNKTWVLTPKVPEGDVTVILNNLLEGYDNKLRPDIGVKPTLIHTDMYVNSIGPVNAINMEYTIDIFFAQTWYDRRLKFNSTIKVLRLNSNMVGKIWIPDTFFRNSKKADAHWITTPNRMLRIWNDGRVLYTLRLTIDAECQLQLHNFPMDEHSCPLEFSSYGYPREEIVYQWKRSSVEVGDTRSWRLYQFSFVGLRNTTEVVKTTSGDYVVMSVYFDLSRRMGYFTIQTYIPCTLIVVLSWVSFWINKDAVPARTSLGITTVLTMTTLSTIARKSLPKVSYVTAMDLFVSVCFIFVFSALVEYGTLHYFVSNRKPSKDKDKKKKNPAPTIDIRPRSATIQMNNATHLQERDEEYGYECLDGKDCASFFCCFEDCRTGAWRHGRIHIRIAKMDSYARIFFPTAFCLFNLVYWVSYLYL
UniProt P62813, 28-455 R158C: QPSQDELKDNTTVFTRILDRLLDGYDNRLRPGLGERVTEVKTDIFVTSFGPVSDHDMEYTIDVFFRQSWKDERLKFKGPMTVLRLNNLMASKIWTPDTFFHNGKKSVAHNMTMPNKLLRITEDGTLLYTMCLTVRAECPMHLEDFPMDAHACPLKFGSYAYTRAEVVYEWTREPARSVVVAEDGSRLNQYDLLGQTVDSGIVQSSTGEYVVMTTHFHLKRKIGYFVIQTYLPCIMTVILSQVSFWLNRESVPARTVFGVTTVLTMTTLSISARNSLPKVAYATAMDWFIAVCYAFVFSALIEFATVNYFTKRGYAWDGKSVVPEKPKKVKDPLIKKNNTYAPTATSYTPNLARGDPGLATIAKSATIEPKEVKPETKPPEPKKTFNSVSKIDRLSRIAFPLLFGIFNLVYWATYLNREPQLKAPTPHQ
UniProt P63138, 25-474 limits assumed: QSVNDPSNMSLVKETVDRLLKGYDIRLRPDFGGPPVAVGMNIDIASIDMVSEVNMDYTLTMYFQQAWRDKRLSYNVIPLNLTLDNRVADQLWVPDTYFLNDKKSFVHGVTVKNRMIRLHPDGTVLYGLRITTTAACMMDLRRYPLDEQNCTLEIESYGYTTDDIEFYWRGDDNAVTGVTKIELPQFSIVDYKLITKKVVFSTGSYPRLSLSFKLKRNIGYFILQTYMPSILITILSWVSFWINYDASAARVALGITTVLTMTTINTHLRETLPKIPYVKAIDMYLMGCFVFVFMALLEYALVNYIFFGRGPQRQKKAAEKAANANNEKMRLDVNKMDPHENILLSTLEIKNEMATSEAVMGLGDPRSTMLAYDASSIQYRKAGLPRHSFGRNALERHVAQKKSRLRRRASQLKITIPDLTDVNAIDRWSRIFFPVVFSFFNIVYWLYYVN

Molecular target: α1R131Cβ2γ2 GABAR (Rattus norvegicus, UniProt P18508+P62813+P63138, R158C)
Experiment: Rate of MTS modification of introduced cysteine
Settings: relative to control (MTS alone); 10μM flurazepam, DMCM, low non-activating PB

CCc1c(C(=O)OC)ncc2[nH]c3cc(OC)c(OC)cc3c12 [DMCM, 3-carbomethoxy-4-ethyl-6,7-dimethoxy-β-carboline]
fold faster MTSEA-biotin reaction at α1R131C: 1.9 fold

CCN(CC)CCN1C(=O)CN=C(c2ccccc2F)c2cc(Cl)ccc21 [Flurazepam]
fold faster MTSEA-biotin reaction at α1R131C: 2.1 fold

CCCC(C)C1(CC)C(=O)NC(=O)NC1=O (stereo not drawn) [Pentobarbital, pentobarbital]
fold faster MTSEA-biotin reaction at α1R131C: had no effect
